The values below come from ChEMBL document CHEMBL4765409, “Synthesis and biological evaluation of geniposide derivatives as potent and selective PTPlB inhibitors” (Eur J Med Chem, 2020).

Assay [1] is filed under the species Homo sapiens. Briefly: Selectivity ratio of IC50 for recombinant human TCPTP to IC50 for inhibition of recombinant human PTP1B.
The species entered for assay [2] is Homo sapiens. The assay can be described thus: Selectivity ratio of IC50 for recombinant SHP2 (unknown origin) to IC50 for inhibition of recombinant human PTP1B.

Turning to `O=C(O)C1=CO[C@@H](O[C@@H]2O[C@H](COCc3ccccc3)[C@@H](OCc3ccccc3)[C@H](OCc3ccccc3)[C@H]2OCc2ccccc2)[C@@H]2C(COCc3ccccc3)=CC[C@H]12`, the Ratio IC50 in the assay filed under Homo sapiens [1] came out at 4; in the assay filed under Homo sapiens [2] it was 9.
In the same order, the values of `CCOS(=O)(=O)/C=C/c1ccc(OCC2=CC[C@@H]3C(C(=O)Nc4ccc(Oc5ccc(Br)cc5Cl)cc4)=CO[C@@H](OCc4ccccc4)[C@H]23)cc1` are 4 and 4.
The matching figures for `CCOS(=O)(=O)/C=C/c1ccc(OCC2=CC[C@@H]3C(C(=O)Nc4ccc(Oc5ccc(-c6ccccc6)cc5)cc4)=CO[C@@H](OC)[C@H]23)cc1`: 3 and 3.
